The values below come from PubChem BioAssay AID1117324 (Cheminformatics & Chemogenomics Research Group (CCRG), …, 2015).

This assay has as its system VEGF-stimulated ADSC/ECFC co-culture, nuclear area imaging. In words: nuclear area loss in endothelial-stromal co-culture, dose response, cell-based, VEGF stimulation, IC50 (AID 1117324).

The term IC50 denotes the concentration at which inhibition is half-maximal.

The source made the active and inactive calls. The rule behind the calls is not given here.

Regarding `C/C1=C2N=C(/C=C3N=C(/C(C)=C4\[N-][C@@](C)([C@@H]5N=C1[C@](C)(CCC(=O)NC[C@@H](C)OP(=O)([O-])O[C@H]1[C@@H](O)[C@@H](n6cnc7cc(C)c(C)cc76)O[C@@H]1CO)[C@H]5CC(N)=O)[C@@](C)(CC(N)=O)[C@@H]4CCC(N)=O)[C@@](C)(CC(N)=O)[C@@H]\3CCC(N)=O)C(C)(C)[C@@H]/2CCC(N)=O.[C-]#N.[Co+3]`, the IC50 is inactive: > 10 µM.
